Consider 107 compounds from PubChem BioAssay AID485 (The Scripps Research Institute Molecular Screening Center, 2006).

By UniProt entry, the sequences of proteins in these tests, tags left out. Where a name states a change or a piece, a line headed by the entry shows the natural chain unless it says otherwise.
UniProt Q99500: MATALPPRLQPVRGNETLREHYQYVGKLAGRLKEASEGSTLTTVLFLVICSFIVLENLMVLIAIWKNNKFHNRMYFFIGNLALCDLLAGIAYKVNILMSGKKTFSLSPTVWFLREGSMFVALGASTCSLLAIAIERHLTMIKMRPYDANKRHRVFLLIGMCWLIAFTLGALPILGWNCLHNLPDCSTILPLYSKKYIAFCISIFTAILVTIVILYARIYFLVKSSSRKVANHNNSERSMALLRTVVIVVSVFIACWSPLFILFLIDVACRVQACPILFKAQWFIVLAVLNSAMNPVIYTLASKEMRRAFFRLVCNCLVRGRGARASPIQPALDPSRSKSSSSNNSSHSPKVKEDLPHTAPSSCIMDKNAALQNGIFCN

The list shows a part of the results, in another mix than the full data. Activity calls are given as the source filed them.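 Rule for the calls: active = inhibition above the plate cutoff, the mean inhibition of test wells on that plate plus 3 SD (cut at about 28% in these data); inactive = the rest.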

In the experiment the target is Sphingosine 1-phosphate receptor 3 (Homo sapiens) (UniProt Q99500). Nature of the experiment: S1P3 receptor antagonists, primary screen, cell-based (AID 485).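 Note: cells challenged with S1P at its EC80 of 0.8 µM; blue over green emission ratio from cleaved BLA substrate after 4 h stimulation; 0% = S1P-stimulated wells and 100% = unstimulated DMSO-only wells.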 Particulars: CHO S1P3 NFAT-BLA reporter, FRET fluorescence, antagonist mode; at 4.98 µM; hits give high values.
Regarding `CS(=O)(=O)c1cc([N+](=O)[O-])c2no[n+]([O-])c2c1`, the inhibition (usually the relative decrease from the control value, in per cent) is inactive: -0.57%.

Take `O=P(Nc1nccs1)(c1ccccc1)c1nc2ccccc2s1` (configuration not stated): the inhibition was active: 74.7%. Under `O=P(Nc1nccs1)(Oc1ccccc1)Oc1ccccc1` stands inactive: 17.1%; under `CCOP1(=S)c2c(C)nn(CCC#N)c2N=C(c2ccccc2F)N1C` (configuration not stated), inactive: -14.5%. Take `O=C(O)COc1ccc([As](=O)(O)O)cc1[N+](=O)[O-]`: the inhibition is inactive: 15.6%. Under `Nc1ccccc1[As](=O)(O)c1ccccc1` stands inactive: 2.67%. To `CCOP1(=S)c2c(C)nn(CCC#N)c2N=C(c2ccc(F)cc2)N1C` (configuration not stated) belongs inactive: -12.1%. For the compound `COc1cc(C(=O)NCC2(N3CCOCC3)CCCCC2)cc(Cl)c1OC(C)C`, the inhibition is inactive: -17.8%. Turning to `O=[As](O)(O)c1cccnc1`, the inhibition was inactive: -4.09%. To `O=C(OC1CN2CCC1CC2)c1ccc(Cl)cc1` (configuration not stated) belongs inactive: -1.77%. Take `O=[As](O)(c1cccc(O)c1)c1cccc(O)c1`: the inhibition is inactive: -12.5%. Under `CCCOP(=S)(Nc1nc(N)cc(=O)[nH]1)OCCC` stands inactive: -12.8%; under `Nc1cccc2c([As](=O)(O)O)cccc12`, inactive: 10.2%; under `Cc1ccc(NCCc2c([N+](=O)[O-])cc([N+](=O)[O-])cc2[N+](=O)[O-])cc1`, inactive: -3.29%.

Regarding `CCOP(=O)(Nc1cccc2ccccc12)OCC`, the inhibition was inactive: -3.46%.

As to `COc1cc(C2NCCC3(OCCO3)C2(C)C)cc(OC)c1OC` (configuration not stated), the inhibition is inactive: -15.1%.

Consider `CCOP(=O)(Nc1ccc(C)cn1)OCC`, for which the inhibition is inactive: -0.67%.

In the case of `O=P1(Nc2ccccn2)COc2ccccc2OC1`, the inhibition was inactive: 1.6%.

With `CC(C)(C)C(=O)NC(Sc1ncccn1)C(Cl)(Cl)Cl` (configuration not stated), the inhibition was inactive: -0.04%. Under `Clc1n[nH]nc1-c1nn[nH][15n]1` stands inactive: 4.9%; under `CN(C(=O)Cc1ccc(Cl)c(Cl)c1)[C@@H]1CCCC[C@H]1N1CCCC1`, inactive: 12.8%; under `CC(C)/C=N\N=C(\N)N[N+](=O)[O-]`, inactive: -2.5%. To `CC1CCC(C(C)C)C(OP(=O)(Nc2ccccn2)c2ccccc2)C1` (configuration not stated) belongs inactive: 2.2%.

For the compound `Cc1nn(-c2ccccc2)c2c1P(=O)(N1CCOCC1)N(C)C(c1ccccc1)=N2` (configuration not stated), the inhibition was inactive: -13.3%. To `O=C(/C=C/c1ccccc1)OC1CN2CCC1CC2` (configuration not stated) belongs inactive: 5.26%; to `CN(C)C1(CNC(=O)c2ccc(S(C)(=O)=O)cc2)CCCCC1`, inactive: -26%; to `O=P1(Nc2ncccn2)COc2ccccc2OC1`, inactive: -0.1%.

As for `O=P1(Nc2ccc(Br)cn2)COc2ccccc2OC1`, the inhibition is inactive: -13.4%. In the case of `O=[As](O)(c1cccs1)c1cccs1`, the inhibition is inactive: -7.41%. To `Nc1cccc([As](=O)(O)c2ccccc2)c1` belongs inactive: 8.3%; to `CCOC(=O)Nc1ccc([As](=O)(O)O)c(O)c1`, inactive: -3.78%. To `Cc1cc(SC(NC(=O)c2ccccc2)C(Cl)(Cl)Cl)nc(C(C)C)n1` (configuration not stated) belongs inactive: 0.39%. Under `CCOC(=O)Nc1cccc([As](=O)(O)O)c1` stands inactive: -0.3%; under `O=[N+]([O-])c1ccc(Nc2ccc(Oc3ccc([N+](=O)[O-])cc3[N+](=O)[O-])cc2)c([N+](=O)[O-])c1`, inactive: 3.63%. Turning to `Cc1cc(SC(NC=O)C(Cl)(Cl)Cl)ncn1` (configuration not stated), the inhibition was inactive: -1.06%. Under `O=P(Nc1ccccn1)(c1cccc2ccccc12)c1cccc2ccccc12` stands inactive: -20.6%; under `COP1(=S)c2c(C)nn(CCC#N)c2N=C(c2ccc(F)cc2)N1C` (configuration not stated), inactive: -29.4%. To `O=C(COc1ccccc1)OC1CN2CCC1CC2` (configuration not stated) belongs inactive: -17.1%; to `CCOC(=O)c1ccc(NC(=O)C(C)(CCl)SC)cc1` (configuration not stated), inactive: -3.18%; to `Cc1cc(=O)[nH]c(N[N+](=O)[O-])n1`, inactive: -7.39%. To `O=C(OC1CN2CCC1CC2)C12CC3CC(CC(C3)C1)C2` (configuration not stated) belongs inactive: 6.9%. `Cc1c2c(nc3ccccc13)SC(C(Cl)Cl)C2` (configuration not stated): the inhibition is inactive: 8.39%.

Turning to `COc1cc(I)ccc1[As](=O)(O)O`, the inhibition is inactive: -10.2%. To `COc1ccc2nc(NP(=O)(c3ccccc3)c3ccccc3)sc2c1` belongs inactive: -12.9%; to `COc1ccc(N/C(=N/P(=O)(N2CCOCC2)N2CCOCC2)N2CCOCC2)cc1`, inactive: -4.36%; to `O=[As](O)(c1ccc(O)cc1)c1ccccc1O`, inactive: -0.92%. As to `C[As](=O)(O)c1cccc(C(=O)O)c1`, the inhibition is inactive: -6.93%. Regarding `Cc1ccc2nc3c(c(C)c2c1)CC(C(Cl)Cl)S3` (configuration not stated), the inhibition was inactive: -25.8%. To `Cc1ccc(OP(=O)(Nc2ccc([N+](=O)[O-])cn2)Oc2ccc(C)cc2)cc1` belongs inactive: 8.21%; to `CC(C)c1ccc(OP(=O)(Nc2ccccn2)Oc2ccccc2F)cc1` (configuration not stated), inactive: -14%; to `O=[N+]([O-])c1cc([N+](=O)[O-])c(-c2ccn[nH]2)s1`, inactive: -5.2%. In the case of `CC(C)NC(=O)NP(=O)(Oc1ccccc1)Oc1ccccc1`, the inhibition is inactive: -8.44%. Under `O=C(O)c1ccccc1[As](=O)(O)O` stands inactive: -5.09%; under `CC(=O)Nc1ccc([As](=O)(O)O)cc1`, inactive: -9.47%; under `O=P(Nc1nc2ccc(Cl)cc2s1)(c1ccccc1)c1ccccc1`, inactive: 0.91%. To `Cc1ccc(NP(=O)(Oc2ccccc2F)Oc2ccccc2F)nc1` belongs inactive: 5.46%; to `CCOP(=O)(Nc1ccccc1)OCC`, inactive: -6.11%. To `Cc1cc(SC(NC(=O)c2ccc(F)cc2)C(Cl)(Cl)Cl)ncn1` (configuration not stated) belongs inactive: -1.25%. `CCN(N=Nc1nonc1N)c1nonc1N`: the inhibition was inactive: 0.85%. As to `Nc1cccc2ccc([As](=O)(O)O)cc12`, the inhibition is inactive: 2.15%. As to `NC(=O)c1cc([N+](=O)[O-])cc([N+](=O)[O-])c1N`, the inhibition is inactive: 2.08%.

Regarding `Cc1ccc(N/C(=N/P(=O)(N2CCOCC2)N2CCOCC2)N2CCOCC2)cc1`, the inhibition was inactive: -5.32%. For the compound `Cc1ccc(OP(=O)(Nc2nccs2)Oc2ccc(C)cc2)cc1`, the inhibition is inactive: 0.7%. With `COc1ccccc1OP(=O)(Nc1ccc(C)cn1)Oc1ccccc1OC`, the inhibition was inactive: -2.46%. To `Clc1ccc(Cl)c(NC2=NCC(CBr)S2)c1` (configuration not stated) belongs inactive: -17.4%; to `Nc1cc(N)c2nonc2c1[N+](=O)[O-]`, inactive: 12.2%. Under `Cc1c2non([O-])c-2c(C)[n+](=O)[n+]1[O-]` stands inactive: -39.2%. To `O=C(NC(Sc1ccncn1)C(Cl)(Cl)Cl)c1ccccc1` (configuration not stated) belongs inactive: -7.03%; to `COc1ccc(C2=NCC(CBr)S2)cc1` (configuration not stated), inactive: -6.36%; to `O=[N+]([O-])c1cc([N+](=O)[O-])c(CCNc2ccccc2)c([N+](=O)[O-])c1`, inactive: -0.84%.

In the case of `CCc1nc2c(n1)c1c(non1O)c1c2no[n+]1[O-]`, the inhibition was inactive: 16.6%. Under `Cc1ccc(NP(=O)(Oc2ccccc2)Oc2ccccc2)nc1` stands inactive: 3.15%. Under `C[N+]1=C2C=CC=CC=C2SC12C([N+](=O)[O-])=CC([N+](=O)[O-])=C[C-]2[N+](=O)[O-]` (configuration not stated) stands inactive: -0.39%; under `Nc1ccc([As](=O)(O)c2ccc(N)cc2)cc1`, inactive: 7.99%. To `CCN(/C(=N/P(=O)(N1CCOCC1)N1CCOCC1)N1CCOCC1)c1ccc(OC)cc1` belongs inactive: 6.25%; to `CN(C)C(=O)OCCc1n(C)cc[n+]1C`, inactive: 5.88%; to `CC(C)=N/N=C(\N)N[N+](=O)[O-]`, inactive: -11.7%. In the case of `O=C(Nc1cc([As](=O)(O)O)ccc1O)c1ccccc1`, the inhibition is inactive: -1.49%.

For the compound `CC(C)(C)C(=O)NC(Sc1ccncn1)C(Cl)(Cl)Cl` (configuration not stated), the inhibition is inactive: -11.9%.

With `O=[N+]([O-])c1ncn(CCn2ncnc2[N+](=O)[O-])n1`, the inhibition was inactive: -7.71%. To `O=[N+]([O-])c1cccc(NC2=NCC(CBr)S2)c1` (configuration not stated) belongs inactive: -9.42%.

As for `O=C(O)CNc1ccc([As](=O)(O)O)cc1`, the inhibition was inactive: -2.9%. Take `O=P(Nc1ccccn1)(c1ccc(Br)cc1)c1ccc(Br)cc1`: the inhibition was inactive: -5.63%. To `O=P(Nc1nc2ccccc2s1)(c1ccccc1)c1ccccc1` belongs inactive: -21.4%; to `O=[N+]([O-])c1ncn(CCn2cnc([N+](=O)[O-])n2)n1`, inactive: -3.13%; to `CC(=O)NC(SC(=S)N(C)C)C(Cl)(Cl)Cl` (configuration not stated), inactive: 3.91%. In the case of `O=[As](O)(c1ccccc1)c1ccc(O)cc1`, the inhibition was inactive: -2.02%. To `Nc1ccc([As](=O)(O)c2ccc([N+](=O)[O-])cc2)cc1` belongs inactive: 0.16%; to `C(Cc1nn[nH]n1)Cc1nn[nH]n1`, inactive: 1.73%. Consider `O=C(OC1CN2CCC1CC2)c1cccc(Cl)c1` (configuration not stated), for which the inhibition is inactive: -11%. Consider `O=P(Nc1nccs1)(c1ccccc1)c1ccccc1`, for which the inhibition is inactive: 2.9%. Turning to `CC(C)C(=O)NC(Sc1ccccc1)C(Cl)(Cl)Cl` (configuration not stated), the inhibition was inactive: -4.47%. Under `c1nnnn1CCn1cnnn1` stands inactive: -22.6%; under `CCOc1ccc(C2=NCC(CBr)S2)cc1` (configuration not stated), inactive: 4.7%. In the case of `O=P1(Nc2nc3ccc(Cl)cc3s2)COc2ccccc2O1` (configuration not stated), the inhibition was inactive: -24.5%. As for `CC(C)(C)C(=O)NC(Sc1ccccc1)C(Cl)(Cl)Cl` (configuration not stated), the inhibition is inactive: -0.89%. To `CC(=O)Nc1ccc(Oc2c([N+](=O)[O-])cc([N+](=O)[O-])cc2[N+](=O)[O-])cc1` belongs inactive: -9.88%; to `CC(=O)Nc1ccc([As](=O)(O)O)c(O)c1`, inactive: -1.73%.

For `O=C(NC1CCS(=O)(=O)C1)NP(=S)(Oc1ccccc1)Oc1ccccc1` (configuration not stated), the inhibition was inactive: -11.2%. Under `CCNC(=S)/N=C(\N)N[N+](=O)[O-]` stands inactive: -9.96%; under `Cc1ccc(NP(=O)(Oc2cccc(C)c2)Oc2cccc(C)c2)nc1`, inactive: -17.1%. Under `c1ccc(-c2nn[nH]n2)c(-c2nn[nH]n2)c1` stands inactive: -5.52%. Under `Cc1ccc(OP(=O)(Nc2ccccn2)Oc2ccc(C)cc2)cc1` stands inactive: -10.8%. Take `CC(=O)NC(SC(=S)N(CC(C)C)CC(C)C)C(Cl)(Cl)Cl` (configuration not stated): the inhibition is active: 58.8%. Consider `CN(C)C(=O)Oc1noc2ccccc12`, for which the inhibition is inactive: -12.1%. Take `O=c1c2cc([N+](=O)[O-])ccc2[nH]c2c([N+](=O)[O-])cc([N+](=O)[O-])cc12`: the inhibition was inactive: -18.9%.

`Cc1ccccc1OP(=O)(Nc1ccccn1)Oc1ccccc1C`: the inhibition was inactive: 7.38%.
